Experimental findings from patent US20100016401A1, “3-AZA-BICYCLO[3.1.0]HEXANE DERIVATIVES” (Actelion Phamaceuticals Ltd., priority 2006, published 2010) are described below.

The chains behind the UniProt entries cited, without tags or fusion partners.
UniProt O43614, whole entry: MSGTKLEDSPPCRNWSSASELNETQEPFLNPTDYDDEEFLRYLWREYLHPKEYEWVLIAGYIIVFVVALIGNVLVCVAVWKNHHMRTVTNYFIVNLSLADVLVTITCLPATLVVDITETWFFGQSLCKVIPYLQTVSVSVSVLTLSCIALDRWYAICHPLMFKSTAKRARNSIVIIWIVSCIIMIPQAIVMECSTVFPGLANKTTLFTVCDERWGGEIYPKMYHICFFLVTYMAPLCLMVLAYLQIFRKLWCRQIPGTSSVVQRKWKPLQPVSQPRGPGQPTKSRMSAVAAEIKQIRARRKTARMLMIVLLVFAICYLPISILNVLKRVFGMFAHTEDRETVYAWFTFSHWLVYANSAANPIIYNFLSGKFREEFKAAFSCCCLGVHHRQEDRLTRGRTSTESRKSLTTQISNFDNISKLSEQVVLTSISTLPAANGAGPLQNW
UniProt O43613, whole entry: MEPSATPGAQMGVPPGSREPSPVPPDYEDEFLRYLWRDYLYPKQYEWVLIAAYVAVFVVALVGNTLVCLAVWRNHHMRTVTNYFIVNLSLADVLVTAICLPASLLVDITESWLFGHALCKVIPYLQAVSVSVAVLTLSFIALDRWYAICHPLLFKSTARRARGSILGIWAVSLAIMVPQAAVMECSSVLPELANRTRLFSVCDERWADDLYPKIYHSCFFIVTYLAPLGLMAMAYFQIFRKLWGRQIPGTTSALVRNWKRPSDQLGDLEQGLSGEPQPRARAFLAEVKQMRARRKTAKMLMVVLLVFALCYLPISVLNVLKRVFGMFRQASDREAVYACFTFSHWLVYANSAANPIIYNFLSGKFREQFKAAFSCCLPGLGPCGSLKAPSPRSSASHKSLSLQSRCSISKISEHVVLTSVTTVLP

The target of assay [1] is human orexin-2 receptor (Homo sapiens, UniProt O43614). Kind of assay: Intracellular calcium measurements (FLIPR), orexin receptor antagonistic activity, OX2. The conditions noted are these: read-out: OX2 IC50, CHO cells expressing human orexin-2 receptor, 10 nM orexin-A as agonist. (In general: Calcium flux is commonly read through the fluorescence of an indicator in the cells.)

Assay [2] concerns the target human orexin-1 receptor (Homo sapiens, UniProt O43613). Kind of assay: Intracellular calcium measurements (FLIPR), orexin receptor antagonistic activity, OX1. The conditions noted are these: read-out: OX1 IC50, CHO cells expressing human orexin-1 receptor, 10 nM orexin-A as agonist.

In general, IC50 refers to the point on the concentration scale where inhibition reaches its midpoint. Take `Cc1nc(C(=O)N2C[C@H]3C[C@H]3[C@H]2CNC(=O)c2cccc3occc23)c(-c2cccc(F)c2)s1`: the IC50 in assay [1] was 12 nM; in assay [2] it was 22 nM.
